Molecular target: Monoamine transporters; serotonin & dopamine (Homo sapiens) (UniProt P31645+Q01959)
Test: Selectivity ratio measured as the IC50 ratio of DAT receptor to that of 5-HT receptor/
Type: protein assay

Protein sequences, listed by entry. Tags and fused reporters are not part of them.
UniProt P31645, whole entry, looked up: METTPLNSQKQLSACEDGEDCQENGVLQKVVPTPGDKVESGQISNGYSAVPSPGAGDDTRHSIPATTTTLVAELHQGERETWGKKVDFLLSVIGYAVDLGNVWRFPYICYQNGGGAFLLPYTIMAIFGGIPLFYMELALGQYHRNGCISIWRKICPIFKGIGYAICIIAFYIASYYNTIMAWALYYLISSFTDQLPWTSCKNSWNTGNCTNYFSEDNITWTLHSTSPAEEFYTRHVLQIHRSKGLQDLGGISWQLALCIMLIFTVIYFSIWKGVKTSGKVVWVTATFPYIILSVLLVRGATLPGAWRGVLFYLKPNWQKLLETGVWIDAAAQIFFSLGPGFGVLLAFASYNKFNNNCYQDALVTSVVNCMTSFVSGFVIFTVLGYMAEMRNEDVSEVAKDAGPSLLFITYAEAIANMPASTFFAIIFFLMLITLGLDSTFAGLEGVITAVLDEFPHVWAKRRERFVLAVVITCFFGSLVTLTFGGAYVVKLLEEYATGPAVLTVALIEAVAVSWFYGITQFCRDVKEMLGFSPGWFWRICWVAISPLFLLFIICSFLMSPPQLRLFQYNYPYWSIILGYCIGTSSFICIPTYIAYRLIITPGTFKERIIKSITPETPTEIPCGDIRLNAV
UniProt Q01959, whole entry, looked up: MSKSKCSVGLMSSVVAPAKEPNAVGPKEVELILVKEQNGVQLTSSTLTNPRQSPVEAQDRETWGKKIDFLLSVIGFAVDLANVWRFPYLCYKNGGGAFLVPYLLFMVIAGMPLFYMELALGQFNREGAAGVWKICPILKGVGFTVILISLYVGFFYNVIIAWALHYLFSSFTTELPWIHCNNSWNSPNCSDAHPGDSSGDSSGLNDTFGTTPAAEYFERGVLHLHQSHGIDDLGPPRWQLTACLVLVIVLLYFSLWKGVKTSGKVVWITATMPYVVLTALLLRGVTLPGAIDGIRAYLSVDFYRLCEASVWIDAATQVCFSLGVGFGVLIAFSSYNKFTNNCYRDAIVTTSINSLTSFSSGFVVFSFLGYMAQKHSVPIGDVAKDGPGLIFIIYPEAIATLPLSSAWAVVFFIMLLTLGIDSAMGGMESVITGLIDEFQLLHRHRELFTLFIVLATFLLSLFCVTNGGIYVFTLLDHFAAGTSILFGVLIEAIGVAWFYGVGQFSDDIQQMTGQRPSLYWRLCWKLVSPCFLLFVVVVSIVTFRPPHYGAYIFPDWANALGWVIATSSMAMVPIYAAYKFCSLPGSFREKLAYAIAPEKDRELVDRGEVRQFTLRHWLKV

Row | Structure (SMILES) | Selectivity ratio
1 | COC(=O)[C@@H]1C2CC[C@H](C[C@@H]1c1ccccc1)N2C (stereo in doubt; 18a) | 87
2 | COC(=O)[C@@H]1C2CC[C@H](C[C@@H]1c1ccccc1)N2C (stereo in doubt; 19a) | 57
